Experiment [1] has as its target T1, rat Y2a receptor (encoded by rs5a) (rat).
T1 chain: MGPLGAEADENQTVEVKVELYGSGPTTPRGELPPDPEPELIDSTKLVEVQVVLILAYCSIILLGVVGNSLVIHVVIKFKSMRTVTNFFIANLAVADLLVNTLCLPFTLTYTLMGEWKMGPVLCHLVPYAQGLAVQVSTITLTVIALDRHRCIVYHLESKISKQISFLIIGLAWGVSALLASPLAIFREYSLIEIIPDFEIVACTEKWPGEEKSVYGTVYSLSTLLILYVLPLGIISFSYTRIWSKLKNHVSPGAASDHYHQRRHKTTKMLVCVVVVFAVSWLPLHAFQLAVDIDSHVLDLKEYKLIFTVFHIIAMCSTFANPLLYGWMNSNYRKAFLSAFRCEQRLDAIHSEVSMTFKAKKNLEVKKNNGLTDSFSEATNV
Kind of experiment: 125I-PYY displacement, COS-7 membranes, Ki from IC50.

Chains of the proteins cited; added tags and fusions are not shown. A change or cut given only in a name is not applied to a line headed by its entry. Chains listed by the source or under a name are the forms on record and can include a tag or linker.
Y2-like receptor population expressed by human SK-N-Be(2) neuroblastoma cells, one chain, as listed by the source: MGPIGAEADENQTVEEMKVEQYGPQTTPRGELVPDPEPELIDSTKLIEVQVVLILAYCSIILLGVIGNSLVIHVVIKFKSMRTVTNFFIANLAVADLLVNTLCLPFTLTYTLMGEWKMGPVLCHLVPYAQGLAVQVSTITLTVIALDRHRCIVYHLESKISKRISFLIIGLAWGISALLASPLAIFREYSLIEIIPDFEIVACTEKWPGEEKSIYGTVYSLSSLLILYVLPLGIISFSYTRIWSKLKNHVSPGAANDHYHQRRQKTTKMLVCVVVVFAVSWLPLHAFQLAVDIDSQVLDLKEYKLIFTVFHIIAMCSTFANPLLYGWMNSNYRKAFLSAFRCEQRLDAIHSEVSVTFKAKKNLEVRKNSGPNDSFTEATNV

Experiment [2] concerns the target Y2-like receptor population expressed by human SK-N-Be(2) neuroblastoma cells (human). Kind of experiment: 125I-PYY displacement, SK-N-Be(2) membranes, Ki from IC50.

For orientation: Ki means the dissociation constant of the complex between target and ligand, obtained from inhibition or displacement. For PAEDMARYYSALRHYINLITRQRY (peptide, UniProt P01303 41-64, looked up, C-terminal amide, range 13-36) [NPY13-36, human], affinity in experiment [1] was put at a Ki of 31 nM.

B1: porcine NPY20-36 (peptide, UniProt P01304 29-45, looked up)
peptide: YYSALRHYINLITRQRY
modifications: C-terminal amide
notes: range 20-36; also called NPY20-36, porcine
On to B1, for which the Ki in experiment [1] came to 93 nM; in experiment [2] it was 3.1 nM.

Values taken from US6420532 (SYNAPTIC PHARMACEUTICAL, dated 2002).
